Values quoted from earlier work in article PMC8657033.

Biological target: Mesothelin (Homo sapiens) (UniProt Q13421)
Details: cited from earlier work

Amatuximab
Kd: 1.5 nM
